Test results taken from patent US9604932B2 (priority 2013, dated 2017).
Where “and” joins values, the source holds several entries; their conditions need not be identical. Identical values can stand only once.

System: Cl2 inhalational lung injury (CILI) in mice
Test: Murine Cl2 exposure model (CILI), lung histology score
Settings: for Effect on CILI (histology scores, FIG. 2): 2 and 6 hours post 60 minute Cl2 exposure; for Histology score, Mean: n=4
[1] = R-107 in olive oil 10 mg/kg/dose IP 2 and 6 hours post 60 minute Cl2 (400 ppm), 24 hours

| Compound | Effect on CILI (histology scores, FIG. 2) (R-100 in HPCD, 80 mg/kg/dose IP, 24 hours post exposure) | Effect on CILI (histology scores, FIG. 2) (R-107 in PEG-400, 100 mg/kg/dose IP, 24 hours post exposure) | Histology score, Mean (R-107 in oil 30 mg/kg/dose IP 2 and 6 hours post 60 minute Cl2 (400 ppm), 24 hours) | Histology score, Mean (R-107 in oil 80 mg/kg/dose IP 2 and 6 hours post 60 minute Cl2 (400 ppm), 24 hours) | Effect on CILI (histology scores), dose response (R-107 in oil 10, 30, 80 mg/kg/dose IP, 24 hours post exposure) | Histology score, individual mice [1] | Histology score, Mean [1] |
| --- | --- | --- | --- | --- | --- | --- | --- |
| 3-nitratomethyl-2,2,5,5-tetramethylpyrrolidinyloxy | significantly attenuated CILI |  |  |  |  |  |  |
| CC(=O)ON1C(C)(C)CC(CO[N+](=O)[O-])C1(C)C (stereo not shown) [R-107, 2,2,5,5-tetramethyl-3-(nitrooxymethyl)pyrrolidin-1-yl acetate] |  | significantly attenuated CILI | 2.64 | 1.88 | dose-responsively attenuated CILI | 3.2 and 3.0 (2×) and 3.5 | 3.18 |
